Literature values in patent US20170209415A1, “USE OF (+)-1-(3,4-DICHLOROPHENYL)-3-AZABICYCLO[3.1.0]HEXANE TO TREAT ADDICTIVE DISORDERS INCLUDING NICOTINE ADDICTION” (priority 2012, published 2017).

By UniProt entry, the sequences of proteins in these tests, tags left out.
UniProt P23975, whole entry: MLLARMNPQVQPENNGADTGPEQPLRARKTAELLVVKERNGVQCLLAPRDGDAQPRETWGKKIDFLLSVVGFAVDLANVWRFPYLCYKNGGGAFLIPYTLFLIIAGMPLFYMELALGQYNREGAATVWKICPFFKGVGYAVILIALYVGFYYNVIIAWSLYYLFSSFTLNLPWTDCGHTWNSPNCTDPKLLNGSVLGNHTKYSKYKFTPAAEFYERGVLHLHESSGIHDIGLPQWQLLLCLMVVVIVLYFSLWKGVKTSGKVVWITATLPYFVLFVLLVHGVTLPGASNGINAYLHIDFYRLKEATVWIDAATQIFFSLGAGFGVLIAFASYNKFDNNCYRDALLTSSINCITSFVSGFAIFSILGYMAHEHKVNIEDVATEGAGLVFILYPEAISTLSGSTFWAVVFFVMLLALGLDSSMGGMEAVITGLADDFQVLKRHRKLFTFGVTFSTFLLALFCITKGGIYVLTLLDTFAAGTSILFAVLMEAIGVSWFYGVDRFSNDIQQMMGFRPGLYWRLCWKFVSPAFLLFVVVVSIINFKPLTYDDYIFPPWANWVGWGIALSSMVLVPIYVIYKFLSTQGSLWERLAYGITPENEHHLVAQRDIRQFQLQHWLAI
UniProt Q01959, whole entry: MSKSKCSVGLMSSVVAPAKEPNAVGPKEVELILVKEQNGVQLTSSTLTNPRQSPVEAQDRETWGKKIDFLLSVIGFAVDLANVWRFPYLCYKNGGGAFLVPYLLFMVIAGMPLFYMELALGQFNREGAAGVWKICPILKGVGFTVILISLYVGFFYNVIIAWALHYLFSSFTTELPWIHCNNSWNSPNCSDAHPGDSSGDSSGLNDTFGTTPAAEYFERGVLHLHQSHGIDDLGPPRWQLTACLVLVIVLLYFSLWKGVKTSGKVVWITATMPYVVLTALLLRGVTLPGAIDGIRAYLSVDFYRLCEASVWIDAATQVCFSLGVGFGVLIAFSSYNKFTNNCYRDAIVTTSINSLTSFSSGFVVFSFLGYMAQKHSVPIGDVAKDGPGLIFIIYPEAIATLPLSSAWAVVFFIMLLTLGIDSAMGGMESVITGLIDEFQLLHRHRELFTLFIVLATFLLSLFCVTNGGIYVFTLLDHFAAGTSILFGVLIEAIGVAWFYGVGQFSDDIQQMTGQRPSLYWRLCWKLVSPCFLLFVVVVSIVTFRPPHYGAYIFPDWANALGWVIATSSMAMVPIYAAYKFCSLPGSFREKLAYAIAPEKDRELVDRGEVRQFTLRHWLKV

Experiments:
NE reuptake = NE reuptake (Homo sapiens, UniProt P23975); conditions: read-out: IC50, NE reuptake inhibition; Schrieber, 2009; cited from earlier work
DA reuptake = DA reuptake (Homo sapiens, UniProt Q01959); conditions: read-out: IC50, DA reuptake inhibition; Schrieber, 2009; cited from earlier work

Structure (SMILES): NC1CCC(c2ccc(Cl)c(Cl)c2)c2ccccc21 (centres unmarked)
- IC50 (NE reuptake): 4 nM
- IC50 (DA reuptake): 3 nM
